Our source for the IC50 and Kd values is patent US7803377B2, “Anti-DLL4 antibodies and methods using same” (Genentech, Inc., priority 2006, dated 2010).

Sequences of proteins named here, by UniProt entry; tags and fusion partners are left off. Residues count along the entry.
UniProt Q9NR61, 27-404: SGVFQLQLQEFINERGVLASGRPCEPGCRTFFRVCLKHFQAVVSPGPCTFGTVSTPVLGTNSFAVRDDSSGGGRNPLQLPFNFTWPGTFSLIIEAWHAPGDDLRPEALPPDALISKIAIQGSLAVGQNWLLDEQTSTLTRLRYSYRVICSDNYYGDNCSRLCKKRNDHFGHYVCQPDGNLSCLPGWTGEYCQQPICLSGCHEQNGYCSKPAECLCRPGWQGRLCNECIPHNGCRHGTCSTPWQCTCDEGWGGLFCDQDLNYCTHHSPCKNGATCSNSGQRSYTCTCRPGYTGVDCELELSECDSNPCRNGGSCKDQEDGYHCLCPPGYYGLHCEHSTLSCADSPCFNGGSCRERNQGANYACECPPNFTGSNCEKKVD

For one assay, the target named is DLL4 (Homo sapiens, UniProt Q9NR61). Nature of the assay: Notch ligand: Notch blocking ELISA (DLL4-AP / DLL4-His binding to coated rNotch1). Also noted: amino acid 1-404 of DLL4 fused to human placenta alkaline phosphatase; made in house; host or cells: 293 cells, conditioned medium (DLL4-AP). Conditions: DLL4-AP conditioned medium; rrNotch1-Fc coated at 0.5 μg/ml; read-out: calculated IC50, blocking the binding of DLL4-AP to coated rNotch1. The method, then:
Notch ligand: Notch blocking ELISA. 96-well microtiter plates were coated with recombinant rat Notch1-Fc (rrNotch1-Fc, R&D Systems) at 0.5 μg/ml. Conditioned medium containing DLL4-AP (amino acid 1-404 of DLL4 fused to human placenta alkaline phosphatase) was used in the assay. To prepare conditioned medium, 293 cells were transiently transfected with plasmid expressing DLL4-AP with Fugen6 reagent (Roche Molecular Biochemicals). Five days posttransfection, the conditioned medium was harvested, filtered and stored at 4° C. Purified antibodies titrated from 0.15 to 25 μg/ml were preincubated for 1 hr at room temperature with DLL4-AP conditioned medium at a dilution that conferred 50% maximally achievable binding to coated rrNotch1-Fc. The antibody/DLL4-AP mixture was then added to rrNotch1-Fc coated plate for 1 hr at room temperature, after which plates were washed several times in PBS. The bound DLL4-AP was detected using 1-Step PNPP (Pierce) as substrate and OD 405 nm absorbance measurement. Identical assay was performed with DLL1-AP (human DLL1, amino acid 1-445). […] The bound His-tagged ligands was detected with mouse anti-His mAb (1 μg/ml, Roche Molecular Biochemicals), biotinylated goat-anti-mouse (Jackson ImmunoResearch) and Streptavidin-AP (Jackson ImmunoResearch).

A further assay concerns the target T1, human Delta4 (ECD5.5) (Homo sapiens, UniProt Q9NR61).
T1 construct: DLL4-His (C-terminal His-tagged human DLL4, amino acid 1-404); His (C)
Nature of the assay: Surface plasmon resonance (BIAcore-3000) binding affinity and kinetics. Particulars: human DLL4-His; Kd calculated as koff/kon. The method, then:
To determine the binding affinity of the anti-DLL4 Mabs, surface plasmon resonance (SRP) measurement with a BIAcore™-3000 was used (BIAcore, Inc., Piscataway, N.J.). Briefly, carboxymethylated dextran biosensor chips (CM5, BIAcore Inc.) were activated with N-ethyl-N′-(3-dimethylaminopropyl)-carbodiimide hydrochloride (EDC) and N-hydroxysuccinimide (NHS) according to the supplier's instructions. Anti-DLL4 antibody was diluted with 10 mM sodium acetate, pH 4.8, into 5 μg/ml before injection at a flow rate of 5 μl/minute to achieve approximately 500 response units (RU) of coupled antibody. Next, IM ethanolamine was injected to block unreacted groups. For kinetics measurements, two-fold serial dilutions of either human or murine DLL4-His molecules (0.7 nM to 500 nM) were injected in PBS with 0.05% Tween™ 20 at 25° C. at a flow rate of 25 μl/min. Association rates (kon) and dissociation rates (koff) were calculated using a simple one-to-one Langmuir binding model (BIAcore Evaluation Software version 3.2). The equilibrium dissociation constant (Kd) was calculated as the ratio koff/kon.

Usually IC50 stands for the concentration at which inhibition is half-maximal. The Kd is the constant that tells how readily two partners part at equilibrium. Consider “YW26.82: affinity matured anti-DLL4 monoclonal antibody; HVR-H1/H2/H3 SEQ ID NO:1, 8, 9; HVR-L1/L2/L3 SEQ ID NO:10, 11, 18”, for which the IC50 in the assay with DLL4 was around 12 nM. Further, the Kd with human Delta4 (ECD5.5) was 0.15 nM.
